Data from patent publication US9725465B2, “Biaryl acetamide compounds and methods of use thereof” (Ambit Biosciences Corporation, priority 2013, dated 2017).

Columns and labels:
[1] = test system: Ba/F3 cells expressing FLT3-ITD-D835V
FLT3-ITD-F691L = FLT3-ITD-F691L (Homo sapiens (Human), UniProt P36888, F691L/INS600HVDFREYEYD); experiment: pFLT3 MSD assay, Ba/F3 FLT3-ITD-F691L; format: cell-based; details: Ba/F3 FLT3-ITD-F691L cells, 2 hours, read-out: BaF3-FLT3-ITD-F691L pFlt3 IC50
[2] = test system: Ba/F3 cells expressing FLT3-ITD
FLT3-ITD-D835V = FLT3-ITD-D835V (Homo sapiens (Human), UniProt P36888, D835V/INS600HVDFREYEYD); experiment: pFLT3 MSD assay, Ba/F3 FLT3-ITD-D835V; format: cell-based; details: Ba/F3 FLT3-ITD-D835V cells, 2 hours, read-out: BaF3-FLT3-ITD-D835V pFlt3 IC50

Measured: IC50

CCOc1n[nH]c2ncc(-c3ccc(CC(=O)Nc4cc(C(C)(C)C(F)(F)F)on4)cc3)cc12 [Example 39, 2-(4-(3-ethoxy-1H-pyrazolo[3,4-b]pyridin-5-yl)phenyl)-N-(5-(1,1,1-trifluoro-2-methylpropan-2-yl)isoxazol-3-yl)acetamide]
< 10 nM: all assays above

COc1cc2ncc(-c3ccc(CC(=O)Nc4cc(C(C)(C)C)on4)c(F)c3)nc2cc1OC [Example 43, N-(5-(tert-butyl)isoxazol-3-yl)-2-(4-(6,7-dimethoxyquinoxalin-2-yl)-2-fluorophenyl)acetamide]
< 10 nM: all assays above

COc1cc2ncc(-c3ccc(CC(=O)Nc4cc(C(C)(C)C(F)(F)F)on4)c(F)c3)nc2cc1OC [Example 46, 2-(4-(6,7-dimethoxyquinoxalin-2-yl)-2-fluorophenyl)-N-(5-(1,1,1-trifluoro-2-methylpropan-2-yl)isoxazol-3-yl)acetamide]
< 10 nM: all assays above

COCCOc1n[nH]c2ncc(-c3ccc(CC(=O)Nc4cc(C(C)(C)C(F)(F)F)on4)cc3)cc12 [Example 47, 2-(4-(3-(2-methoxyethoxy)-1H-pyrazolo[3,4-b]pyridin-5-yl)phenyl)-N-(5-(1,1,1-trifluoro-2-methylpropan-2-yl)isoxazol-3-yl)acetamide]
< 10 nM: all assays above

CC(O)c1n[nH]c2ncc(-c3ccc(CC(=O)Nc4cc(C(C)(C)C)on4)c(F)c3)cc12 (stereo not drawn) [Example 62, N-(5-(tert-butyl)isoxazol-3-yl)-2-(2-fluoro-4-(3-(1-hydroxyethyl)-1H-pyrazolo[3,4-b]pyridin-5-yl)phenyl)acetamide]
< 10 nM: all assays above

COc1n[nH]c2ncc(-c3ccc(CC(=O)Nc4cc(C(C)(C)C(F)(F)F)on4)c(F)c3)cc12 [Example 63, 2-(2-fluoro-4-(3-methoxy-1H-pyrazolo[3,4-b]pyridin-5-yl)phenyl)-N-(5-(1,1,1-trifluoro-2-methylpropan-2-yl)isoxazol-3-yl)acetamide]
< 10 nM: all assays above

CC(C)(C)c1cc(NC(=O)Cc2ccc(-c3cnc4[nH]c(C(=O)NCCO)cc4c3)cc2)no1 [Example 64, 5-(4-(2-((5-(tert-butyl)isoxazol-3-yl)amino)-2-oxoethyl)phenyl)-N-(2-hydroxyethyl)-1H-pyrrolo[2,3-b]pyridine-2-carboxamide]
< 10 nM: all assays above

CNC(=O)c1cc2cc(-c3ccc(CC(=O)Nc4cc(C(C)(C)C)on4)cc3)cnc2[nH]1 [Example 65, 5-(4-(2-((5-(tert-butyl)isoxazol-3-yl)amino)-2-oxoethyl)phenyl)-N-methyl-1H-pyrrolo[2,3-b]pyridine-2-carboxamide]
< 10 nM: all assays above

CN(C)CCNC(=O)c1cc2cc(-c3ccc(CC(=O)Nc4cc(C(C)(C)C)on4)cc3)cnc2[nH]1 [Example 66, 5-(4-(2-((5-(tert-butyl)isoxazol-3-yl)amino)-2-oxoethyl)phenyl)-N-(2-(dimethylamino)ethyl)-1H-pyrrolo[2,3-b]pyridine-2-carboxamide]
< 10 nM: all assays above
